# Measured properties of organic chemicals

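OPERA's authors assembled the values from existing databases and did not measure them anew. A listed value is a point estimate from one report or more. How each value was measured is not recorded, so precision varies. Where a salt, mixture or single isomer is drawn, the source does not say that exactly this form was tested. Unmarked limits or estimates from the upstream databases cannot be ruled out.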

The melting point is given in degrees Celsius.
Boiling points are in °C, nominally at 760 mmHg.
The octanol-water partition coefficient is given as log10; larger values mean a more lipophilic compound.
Solubility in water is on a log10 molar scale (set defined at 25 °C).
Vapor pressure is log10 of mmHg; the set covers 15 to 30 °C, mostly 20 to 25 °C.
Henry's law constant (air-water partitioning) is log10 of atm·m3/mol, nominally at 25 °C.
The unbound fraction in human plasma runs from 0 (all bound) to 1 (all free).
Intrinsic clearance (human, µL/min per 10^6 hepatocytes): higher is faster turnover, and 0 stands for none detected.

* Br.CN[C@@H](C)c1cccc(OC)c1: melting point 155.9 °C; logP (octanol/water) -1.69; vapor pressure -7.163 (log10 mmHg)
* COc1cc(C=CC(=O)O)cc(OC)c1OC: water solubility -2.83 (log10 mol/L); vapor pressure -7.889 (log10 mmHg)
* NS(=O)(=O)CCN1C(=O)c2ccccc2C1=O: melting point 210.8 °C; logP (octanol/water) 1; water solubility -3.129 (log10 mol/L); vapor pressure -10.37 (log10 mmHg)
* C=CC(C)(O)CCCC(C)C (centres undefined): logP (octanol/water) 3.69; water solubility -2.466 (log10 mol/L); vapor pressure -0.727 (log10 mmHg)
* O=C(O)c1ccc(/N=N/c2c(O)ccc3cc(S(=O)(=O)[O-])ccc23)cc1.O=C(O)c1ccc(/N=N/c2c(O)ccc3cc(S(=O)(=O)[O-])ccc23)cc1.[Sr+2]: melting point 359.9 °C; logP (octanol/water) -1.37; water solubility -5.06 (log10 mol/L); vapor pressure -7.011 (log10 mmHg)
* COCCCN1C(=O)c2ccc3c(=O)n4c5ccc(C)cc5nc4c4ccc(c2c34)C1=O: melting point 179.4 °C; logP (octanol/water) 4.7; water solubility -6.772 (log10 mol/L)
* O=C1c2ccccc2C(=O)C1c1ccccc1: water solubility -3.985 (log10 mol/L); fraction unbound 0.03
* CC1=CC(C)C(C=O)C(C)C1 (centres undefined): water solubility -1.844 (log10 mol/L); vapor pressure -0.307 (log10 mmHg)
* COC(=O)NCCC[Si](OC)(OC)OC: bp 258 °C; vapor pressure -3.354 (log10 mmHg)
* OCOCCOCO: melting point -48.33 °C; logP (octanol/water) -1.36
* O=C=NCc1cccc(N2C(=O)N(c3cccc(CN=C=O)c3)C2=O)c1: melting point 155.8 °C; water solubility -5.037 (log10 mol/L); vapor pressure -9.443 (log10 mmHg)
* O=C(NC1CCN(CCc2c[nH]c3ccccc23)CC1)c1ccccc1: melting point 209 °C; fraction unbound 0.1583
* CC=CC1=C(C(=O)O)N2C(=O)[C@@H](NC(=O)[C@H](N)c3ccc(O)cc3)[C@H]2SC1: logP (octanol/water) 0.6; water solubility -3.417 (log10 mol/L)
* O=C1NC(=O)c2ccc3c4ccc5c6c(ccc(c7ccc1c2c73)c64)C(=O)NC5=O: logP (octanol/water) 0.8; water solubility -7.571 (log10 mol/L)
* c1cc(OCC2CO2)cc(N(CC2CO2)CC2CO2)c1 (centres undefined): melting point -31.07 °C; water solubility -2.193 (log10 mol/L); vapor pressure -7.487 (log10 mmHg)
* O=C1CCc2cc(OCCCCc3nnnn3C3CCCCC3)ccc2N1: logP (octanol/water) 2.3; water solubility -4.057 (log10 mol/L)
* COc1ccc(-c2coc3cc(O)cc(O)c3c2=O)cc1: fraction unbound 0.0203; Clint 230 µL/min/10^6 cells
* c1ccc2cc3c(ccc4ccccc43)cc2c1: melting point 159 °C; fraction unbound 0.01121; Clint 18.27 µL/min/10^6 cells
* CCn1nc(C(=O)O)c(=O)c2cc3c(cc21)OCO3: logP (octanol/water) 1.5; water solubility -2.44 (log10 mol/L); fraction unbound 0.36
* COc1cc2c(cc1OC)C(C#N)C2 (centres undefined): logP (octanol/water) 1.22; water solubility -2.357 (log10 mol/L); vapor pressure -4.502 (log10 mmHg)
* O=C(O)c1sc(C(=O)O)c2c1OCCO2: logP (octanol/water) 0.29; water solubility -2.868 (log10 mol/L); vapor pressure -5.565 (log10 mmHg)
* CCN(CC)CCS(=O)(=O)[C@@H]1CCN2C(=O)c3coc(n3)CC(=O)C[C@H](O)C=C(C)C=CCNC(=O)C=C[C@@H](C)[C@@H](C(C)C)OC(=O)[C@@H]12: melting point 150 °C; water solubility -3.984 (log10 mol/L)
* O=c1c2cccc3cccc(c32)c2nc3cccc4cccc(c43)n12: melting point 257 °C; water solubility -7.464 (log10 mol/L)
* O=C(O)CCNC(=O)c1ccc(/N=N/c2ccc(O)c(C(=O)O)c2)cc1: logP (octanol/water) 1; water solubility -2.344 (log10 mol/L); vapor pressure -6.545 (log10 mmHg)
* CCOc1ccc(-c2ccc(C)cc2)c(F)c1F: melting point 63 °C; bp 327.5 °C; logP (octanol/water) 5.2; water solubility -6.249 (log10 mol/L); vapor pressure -4.764 (log10 mmHg)
* CC(C)C(=O)OCCc1ccccc1: melting point -55.16 °C; water solubility -3.106 (log10 mol/L); vapor pressure -1.079 (log10 mmHg)
* O=C(CCS)OCCOC(=O)CCS: logP (octanol/water) 1.94; water solubility -1.829 (log10 mol/L); vapor pressure -1.743 (log10 mmHg)
* CN(C)CCN1CCN(C)CC1: logP (octanol/water) -0.351; vapor pressure -0.669 (log10 mmHg)
* COc1ccc2c(c1)CCCC2: logP (octanol/water) 4.1; water solubility -2.748 (log10 mol/L)
* COc1nc(C(F)(F)F)nc(=NC(O)=NS(=O)(=O)c2ccccc2C(F)(F)F)[nH]1: water solubility -3.75 (log10 mol/L); log Henry constant -9.001 (log10 atm·m3/mol)
* CC(C)C1OCCN1CCO (centres undefined): melting point -20.07 °C; vapor pressure -3.222 (log10 mmHg)
* CC(C)(C)c1cc(O)c(C(C)(C)C)cc1O: logP (octanol/water) 2.44; water solubility -4.767 (log10 mol/L); vapor pressure -4.326 (log10 mmHg)
* C/C=C/C/C=C/CCC(=O)[C@H]1O[C@H]1C(N)=O: logP (octanol/water) 1.2; water solubility -2.145 (log10 mol/L)

The last 2 entries again:

{"smiles": "CC(C)(C)c1cc(O)c(C(C)(C)C)cc1O", "logP (octanol/water)": "2.44", "water solubility (log10 mol/L)": "-4.767", "vapor pressure (log10 mmHg)": "-4.326"}
{"smiles": "C/C=C/C/C=C/CCC(=O)[C@H]1O[C@H]1C(N)=O", "logP (octanol/water)": "1.2", "water solubility (log10 mol/L)": "-2.145"}

Source: data files of OPERA 2.9 (Mansouri et al.), github.com/kmansouri/OPERA.